# Results as given in PubChem BioAssay AID782 (Emory University Molecular Libraries Screening Center, 2007).
# The chains behind the UniProt entries cited, without tags or fusion partners.
# UniProt P63073, whole entry, looked up: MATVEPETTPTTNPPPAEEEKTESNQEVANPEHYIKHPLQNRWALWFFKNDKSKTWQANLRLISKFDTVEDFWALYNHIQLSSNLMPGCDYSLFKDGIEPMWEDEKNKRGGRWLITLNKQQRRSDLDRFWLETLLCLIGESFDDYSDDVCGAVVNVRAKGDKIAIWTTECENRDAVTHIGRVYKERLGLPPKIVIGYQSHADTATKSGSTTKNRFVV
# UniProt Q04637, whole entry, looked up: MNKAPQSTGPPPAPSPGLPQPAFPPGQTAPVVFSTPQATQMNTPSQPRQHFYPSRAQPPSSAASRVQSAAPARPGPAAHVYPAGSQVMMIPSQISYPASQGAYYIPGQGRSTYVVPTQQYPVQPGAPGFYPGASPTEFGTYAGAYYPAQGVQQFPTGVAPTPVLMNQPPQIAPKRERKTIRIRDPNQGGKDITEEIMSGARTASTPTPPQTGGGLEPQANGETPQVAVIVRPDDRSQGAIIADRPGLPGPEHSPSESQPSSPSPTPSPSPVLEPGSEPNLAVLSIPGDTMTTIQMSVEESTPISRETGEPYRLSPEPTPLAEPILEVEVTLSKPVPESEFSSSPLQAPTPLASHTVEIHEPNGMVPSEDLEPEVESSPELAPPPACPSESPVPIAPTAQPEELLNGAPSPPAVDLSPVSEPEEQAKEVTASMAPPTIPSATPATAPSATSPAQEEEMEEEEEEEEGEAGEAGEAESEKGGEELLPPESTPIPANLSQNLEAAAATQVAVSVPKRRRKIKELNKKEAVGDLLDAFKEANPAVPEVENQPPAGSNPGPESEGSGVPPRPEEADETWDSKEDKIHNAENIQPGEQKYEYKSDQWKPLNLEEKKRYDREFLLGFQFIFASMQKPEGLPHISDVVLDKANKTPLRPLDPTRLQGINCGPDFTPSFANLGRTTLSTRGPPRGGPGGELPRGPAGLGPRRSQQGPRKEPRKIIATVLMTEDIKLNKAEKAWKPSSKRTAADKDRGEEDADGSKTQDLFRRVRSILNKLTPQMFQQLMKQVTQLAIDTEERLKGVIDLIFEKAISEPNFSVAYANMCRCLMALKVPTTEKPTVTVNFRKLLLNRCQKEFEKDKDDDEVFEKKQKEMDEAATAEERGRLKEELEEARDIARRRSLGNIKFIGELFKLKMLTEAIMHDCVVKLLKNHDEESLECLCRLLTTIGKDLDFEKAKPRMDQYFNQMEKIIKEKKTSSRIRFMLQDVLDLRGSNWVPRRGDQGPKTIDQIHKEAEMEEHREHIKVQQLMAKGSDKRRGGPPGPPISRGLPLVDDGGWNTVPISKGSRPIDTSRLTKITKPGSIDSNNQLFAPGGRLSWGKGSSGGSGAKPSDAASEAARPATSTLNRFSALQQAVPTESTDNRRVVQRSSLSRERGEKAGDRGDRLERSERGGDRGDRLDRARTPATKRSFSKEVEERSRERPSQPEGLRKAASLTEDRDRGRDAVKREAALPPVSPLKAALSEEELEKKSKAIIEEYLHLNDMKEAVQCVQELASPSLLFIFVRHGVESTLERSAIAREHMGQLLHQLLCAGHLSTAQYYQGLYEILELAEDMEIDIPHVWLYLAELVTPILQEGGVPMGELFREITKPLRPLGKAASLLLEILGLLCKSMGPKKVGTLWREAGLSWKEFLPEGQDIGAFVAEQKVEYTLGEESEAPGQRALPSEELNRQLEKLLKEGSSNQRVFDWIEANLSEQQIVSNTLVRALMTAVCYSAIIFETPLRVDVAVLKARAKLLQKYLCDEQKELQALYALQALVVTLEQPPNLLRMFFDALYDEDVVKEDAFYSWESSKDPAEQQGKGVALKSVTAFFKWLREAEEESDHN
# This is a selection; strong and weak results do not stand in their true shares. Some salts or complexes appear as unconnected parts, following the source record. Active and inactive are the calls of the source.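 Rule for the calls: active = inhibition above about 30% (limit read from the data); inactive = the rest.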
# Target: Eukaryotic translation initiation factor 4E (Mus musculus) + Eukaryotic translation initiation factor 4 gamma 1 (Homo sapiens) (UniProt P63073+Q04637)
# Assay: eIF4E–eIF4G protein interaction inhibitors, primary screen, biochemical, uHTS, TR-FRET, eIF4GI fragment (AID 782);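 note: 0% = full FRET control wells and 100% = background wells lacking eIF4GI fragment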
# Conditions: TR-FRET eIF4E-eIF4GI(517-606) binding, 2 h; at 21.7 µM; active compounds read high
row,Compound,inhibition
1,Cc1nc2ccc3ccccc3c2s1.O=[N+]([O-])c1cc([N+](=O)[O-])c(O)c([N+](=O)[O-])c1,inactive: -0.8%
2,O=[N+]([O-])c1cc([N+](=O)[O-])c(-n2nnc3ccccc32)c([N+](=O)[O-])c1,inactive: 4.65%
3,COc1ccccc1OP(C)(=O)Nc1c(C)cccc1C (configuration not stated),inactive: 8.87%
4,CN1CCCCC1COC(=O)C1(O)c2ccccc2CCc2ccccc21 (configuration not stated),inactive: 1.51%
5,CP(=O)(Nc1ccc(SC(F)(F)F)cc1)Oc1ccccc1 (configuration not stated),inactive: -2.91%
6,CCCOc1ccc(NP(C)(=O)Oc2ccc(Cl)cc2)cc1 (configuration not stated),inactive: 1.03%
7,O=[N+]([O-])c1cc([N+](=O)[O-])c(Nc2nnnn2CCO)c([N+](=O)[O-])c1,inactive: -11.4%
8,CCOC(=O)C(CC)C1=NC(C)(C)Cc2ccccc21.O=[N+]([O-])c1cc([N+](=O)[O-])c(O)c([N+](=O)[O-])c1 (configuration not stated),inactive: -0.08%
9,CC1=NCCc2c1[nH]c1ccccc21.O=[N+]([O-])c1cc([N+](=O)[O-])c(O)c([N+](=O)[O-])c1,inactive: -3.25%
10,O=C(O)c1cccc(Nc2c([N+](=O)[O-])cc([N+](=O)[O-])cc2[N+](=O)[O-])c1,inactive: 2.92%
11,Cc1ccc(C)c(NP(C)(=O)Oc2ccccc2)c1 (configuration not stated),inactive: 0.18%
12,CP(=O)(Nc1cccc(Br)c1)Oc1ccccc1 (configuration not stated),inactive: 3.74%
13,Cc1cc(C)cc(OP(C)(=O)Nc2ccccn2)c1 (configuration not stated),inactive: -1.29%
14,COc1ccccc1OP(C)(=O)Nc1cccc(Br)c1 (configuration not stated),inactive: -4.85%
15,CCOC(=O)c1ccc(NP(C)(=O)Oc2cc(C)cc(C)c2)cc1 (configuration not stated),inactive: -3.83%
16,Cc1cc(C)cc(OP(C)(=O)Nc2ccc(C)cc2C)c1 (configuration not stated),inactive: 8.12%
17,CCN(CC)CCCOC(=O)C(O)(c1ccccc1)c1ccccc1,inactive: -3.08%
18,COc1ccccc1OP(C)(=O)Nc1ccc(C)cc1 (configuration not stated),inactive: -3.98%
19,Cc1ccc(NP(C)(=O)Oc2ccccc2)c(C)c1 (configuration not stated),inactive: 1.24%
20,CCOC(=O)c1ccc(NP(C)(=O)Oc2ccccc2)cc1 (configuration not stated),inactive: -1.37%
21,Cc1cc(C)cc(OP(C)(N)=O)c1 (configuration not stated),inactive: 1.41%

row,Compound,inhibition
1,COc1ccccc1OP(C)(=O)Nc1cc(Cl)ccc1C (configuration not stated),inactive: -1.9%
2,COc1ccc(OP(C)(=O)Nc2cccc(F)c2)cc1 (configuration not stated),inactive: -1.93%
3,O=[N+]([O-])c1ccc2c(c1)C=Nc1ccccc1O2,inactive: 0.48%
4,CC(C)(C)c1ccc(OP(C)(=O)Nc2ccc(SC(F)(F)F)cc2)cc1 (configuration not stated),inactive: 10.9%
5,Cc1cccc(C)c1OP(C)(N)=O (configuration not stated),inactive: -2.25%
6,CP(=S)(Nn1cnnc1)Oc1ccccc1 (configuration not stated),inactive: -2.09%
7,CP(=O)(Nc1ccccc1Br)Oc1ccccc1 (configuration not stated),inactive: -1.1%
8,COc1ccccc1OP(C)(=O)Nc1ccccc1 (configuration not stated),inactive: 0.65%
9,CCOC(=O)c1ccc(NP(C)(=O)Oc2ccc(OC)cc2)cc1 (configuration not stated),inactive: 1.52%
10,CCOP(C)(=S)SCC(=O)NC(C)C(=O)O (configuration not stated),inactive: 0.42%
11,CP(=O)(Nc1ccccn1)Oc1ccc(Cl)cc1 (configuration not stated),inactive: 7.65%
12,Cc1cccc(C)c1OP(C)(=O)Nc1ccc(SC(F)(F)F)cc1 (configuration not stated),inactive: 3.8%
13,CP(=O)(Nc1ccc(SC(F)(F)F)cc1)Oc1ccc(Cl)cc1 (configuration not stated),inactive: 2.29%
14,CP(=O)(Oc1ccccc1)OC(c1ccccc1)C(F)(F)F (configuration not stated),inactive: -1.66%
15,CCc1ccc(OP(C)(=O)N2CCN(c3ccc([N+](=O)[O-])cc3)CC2)cc1 (configuration not stated),inactive: 2.2%
16,CP(=O)(NC(=O)Nc1ccccc1)Oc1ccccc1 (configuration not stated),inactive: 4.92%
17,Cc1cc(C)cc(OP(C)(=O)Nc2ccc(SC(F)(F)F)cc2)c1 (configuration not stated),inactive: -1.6%
18,COc1ccccc1OP(C)(=O)Nc1ccccc1Br (configuration not stated),inactive: -3.1%
19,CP(=O)(Nc1ccc(Cl)cc1)Oc1ccc(F)cc1 (configuration not stated),inactive: 6.74%
20,CN(C)C(=O)c1c([N+](=O)[O-])cc([N+](=O)[O-])cc1[N+](=O)[O-],inactive: 1.54%
21,CCN(CC)CC(O)COC(=O)C(O)(c1ccccc1)C1CCCCC1 (configuration not stated),inactive: 0.74%

row,Compound,inhibition
1,COc1ccc(OP(C)(=O)Nc2ccc(Br)cc2)cc1 (configuration not stated),inactive: 0.32%
2,O=C(OCCCN1CCCC1)C(O)(c1ccccc1)C1CCCCC1 (configuration not stated),inactive: 0.21%
3,CP(=O)(Oc1ccccc1)N1CCOC1=O (configuration not stated),inactive: -1.98%
4,CCc1ccc(OP(C)(=O)Nc2cccnc2)cc1 (configuration not stated),inactive: -4.77%
5,CCOC(=O)c1ccc(NP(C)(=O)Oc2ccc(Cl)cc2)cc1 (configuration not stated),inactive: 4.87%
6,CP(=O)(OC12CC3CC(CC(C3)C1)C2)OC12CC3CC(CC(C3)C1)C2,inactive: -0.11%
7,Cc1nc2ccc3ccccc3c2o1.O=[N+]([O-])c1cc([N+](=O)[O-])c(O)c([N+](=O)[O-])c1,inactive: 15.3%
8,CP(=O)(OCCOc1ccccc1)OCCOc1ccccc1,inactive: 0.59%
9,CP(=O)(Nc1ccc(Cl)cc1Cl)Oc1ccccc1 (configuration not stated),inactive: 1.86%
10,Cc1cc(C)cc(OP(C)(=O)Nc2cccc(C(F)(F)F)c2)c1 (configuration not stated),inactive: 2.24%
11,COc1ccccc1OP(C)(=O)Nc1ccc(C)c(C)c1 (configuration not stated),inactive: 9.32%
12,COc1ccc(OP(C)(=O)Nc2ccccc2Br)cc1 (configuration not stated),inactive: -3.85%
13,O=[N+]([O-])c1cc([N+](=O)[O-])c(Nc2ccccn2)c([N+](=O)[O-])c1,inactive: -2.23%
14,Cc1c(NP(C)(=O)Oc2ccc(C(C)C)cc2)c(=O)n(-c2ccccc2)n1C (configuration not stated),inactive: 1.79%
15,CP(=O)(Nc1ccccn1)Oc1ccccc1 (configuration not stated),inactive: -5.73%
16,COc1ccccc1OP(C)(=O)Nc1ccc(C)cc1C (configuration not stated),inactive: 0.02%
17,CCc1ccc(OP(C)(=O)O)cc1,inactive: 0.55%
18,COc1ccccc1OP(C)(=O)Nc1ccc(Br)cc1 (configuration not stated),inactive: -2.82%
19,COc1ccc(OP(C)(=O)Nc2ccccn2)cc1 (configuration not stated),inactive: -6.82%
20,CN(C)CCOC(=O)C(O)(c1ccccc1)C1CCCC1 (configuration not stated),inactive: 6.27%
21,O=C(OC1CN2CCC1CC2)c1ccc([N+](=O)[O-])cc1 (configuration not stated),inactive: 4.63%

row,Compound,inhibition
1,O=C(OCCN1CCN(CCOCc2ccccc2)CC1)C(O)(c1ccccc1)c1ccccc1,inactive: 0.53%
2,COc1ccc2c(c1O)-c1c(O)c(OC)cc3c1[C@H](C2)[N+](C)(C)CC3.O=[N+]([O-])c1cc([N+](=O)[O-])c([O-])c([N+](=O)[O-])c1[O-],inactive: -4.78%
3,CP(=O)(Nc1ccccc1F)Oc1ccccc1 (configuration not stated),inactive: 1.68%
4,CC(C)c1ccc(OP(C)(=O)Nc2ccc(SC(F)(F)F)cc2)cc1 (configuration not stated),inactive: 23%
5,CCN(CC)CCCOC(=O)C(O)(c1ccccc1)C1CCCCC1 (configuration not stated),inactive: -5.24%
6,CP(=O)(Nc1ccccc1)Oc1ccc(F)cc1 (configuration not stated),inactive: 0.25%
7,CCCCCOc1ccc(NP(C)(=O)Oc2ccc(Cl)cc2Cl)cc1 (configuration not stated),inactive: 7.58%
8,CCOC(=O)c1ccc(NP(C)(=O)Oc2ccc(F)cc2)cc1 (configuration not stated),inactive: 5.39%
9,COc1ccc(OP(C)(=O)Nc2ccc(SC(F)(F)F)cc2)cc1 (configuration not stated),inactive: -0.15%
10,O=[N+]([O-])c1ccc(OP2(=O)COCCO2)cc1 (configuration not stated),inactive: -2.27%
11,Cc1cc(-c2cccc3ccccc23)c(C)cn1.O=[N+]([O-])c1cc([N+](=O)[O-])c(O)c([N+](=O)[O-])c1,inactive: 7.45%
12,O=[N+]([O-])c1cc([N+](=O)[O-])c(NCC2CCS(=O)(=O)C2)c([N+](=O)[O-])c1 (configuration not stated),inactive: 3.64%
13,COc1ccc(OP(C)(=O)Nc2cccc(Br)c2)cc1 (configuration not stated),inactive: 0.78%
14,CN(C)CCOC(=O)C(O)(c1ccccc1)C1CCCCC1 (configuration not stated),inactive: 2.67%
15,COc1ccc(NP(C)(=O)Oc2ccccc2OC)cc1 (configuration not stated),inactive: 1.72%
16,CP(=O)(Nc1ccc2c(c1)OCCO2)Oc1ccccc1 (configuration not stated),inactive: 1.87%
17,Cc1ccccc1NP(C)(=O)Nc1ccccc1C,inactive: -0.3%
18,CP(=O)(Nc1ccc(SC(F)(F)F)cc1)Oc1ccc(F)cc1 (configuration not stated),inactive: -3.1%
19,CCOP(C)(=S)SCC(=O)NC(C)(CC)C(=O)O (configuration not stated),inactive: -2.91%
